Consider 1 molecule from ChEMBL document CHEMBL4196003, “The selectivity and bioavailability improvement of novel oral anticoagulants: An overview” (Eur J Med Chem, 2018).

Amino acid sequences for entries named in this document (tags omitted). Residues count along the entry.
UniProt P00742, 41-179 limits assumed: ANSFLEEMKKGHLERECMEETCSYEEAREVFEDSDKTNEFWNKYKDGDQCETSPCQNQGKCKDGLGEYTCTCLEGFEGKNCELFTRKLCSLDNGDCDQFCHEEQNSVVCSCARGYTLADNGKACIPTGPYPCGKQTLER
UniProt P00742, 235-488 limits assumed: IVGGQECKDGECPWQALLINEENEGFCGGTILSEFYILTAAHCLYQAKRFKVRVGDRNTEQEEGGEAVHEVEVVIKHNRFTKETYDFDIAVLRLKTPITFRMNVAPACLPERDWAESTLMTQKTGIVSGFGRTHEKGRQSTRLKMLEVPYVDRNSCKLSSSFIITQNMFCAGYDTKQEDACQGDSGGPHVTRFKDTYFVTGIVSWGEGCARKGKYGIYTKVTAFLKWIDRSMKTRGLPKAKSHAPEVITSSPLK

This test addresses Coagulation factor X (Homo sapiens, UniProt P00742).

In turn, `CC(C)Nc1ccc(-c2cc(N)cc(N)c2)n(CC(=O)NCc2ccc(C(=N)N)cc2)c1=O` gave an IC50 above 30 µM.
